Test results published in patent US20250195530A1, “POLQ INHIBITORS” (ASTRAZENECA AB, priority 2022, published 2025).

Chains of the proteins cited; added tags and fusions are not shown. Residues count along the entry.
UniProt O75417, 1780-2590: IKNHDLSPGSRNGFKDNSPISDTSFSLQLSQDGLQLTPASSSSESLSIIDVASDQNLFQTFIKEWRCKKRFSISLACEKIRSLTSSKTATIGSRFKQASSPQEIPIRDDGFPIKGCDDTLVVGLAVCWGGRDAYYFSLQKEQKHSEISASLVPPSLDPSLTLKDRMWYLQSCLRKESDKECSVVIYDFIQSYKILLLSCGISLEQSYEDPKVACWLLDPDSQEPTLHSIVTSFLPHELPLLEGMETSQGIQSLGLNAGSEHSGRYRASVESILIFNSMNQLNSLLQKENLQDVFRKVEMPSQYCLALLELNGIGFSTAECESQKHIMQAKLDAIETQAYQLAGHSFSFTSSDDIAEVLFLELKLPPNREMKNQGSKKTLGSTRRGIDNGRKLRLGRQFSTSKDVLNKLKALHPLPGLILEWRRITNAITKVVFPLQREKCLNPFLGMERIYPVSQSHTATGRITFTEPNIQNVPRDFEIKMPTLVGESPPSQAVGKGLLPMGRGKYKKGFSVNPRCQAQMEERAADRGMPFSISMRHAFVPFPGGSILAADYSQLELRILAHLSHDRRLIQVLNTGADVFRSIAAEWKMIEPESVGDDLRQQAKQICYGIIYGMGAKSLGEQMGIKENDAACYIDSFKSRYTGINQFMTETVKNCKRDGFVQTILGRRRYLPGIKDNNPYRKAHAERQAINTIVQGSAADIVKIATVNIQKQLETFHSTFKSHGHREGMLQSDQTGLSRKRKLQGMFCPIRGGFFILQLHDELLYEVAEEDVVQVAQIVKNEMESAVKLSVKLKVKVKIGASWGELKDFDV

Target: isolated polymerase domain (I1780-V2590) of DNA polymerase theta (Polθ) (Homo sapiens (Human), UniProt O75417)
Test: biochemical

For `Cc1cnc(Cn2c(-c3ccc(OC4CCCNCC4)cc3Cl)nc3c(OC4(C)CC4)ncnc32)s1` (single isomer, unassigned) [Example T242, 2-((8-(4-(azepan-4-yloxy)-2-chlorophenyl)-6-(1-methylcyclopropoxy)-9H-purin-9-yl)methyl)-5-methylthiazole], the pIC50 was 8.30.
Work on `CC1(Oc2ncnc3c2nc(-c2ccc(OCc4nc(C(=O)O)cs4)cc2Cl)n3Cc2cccc(Cl)c2)CC1` [Example T250, 2-((3-chloro-4-(9-(3-chlorobenzyl)-6-(1-methylcyclopropoxy)-9H-purin-8-yl)phenoxy)methyl)thiazole-4-carboxylic acid] yielded a pIC50 of 8.40.
`CC1(Oc2ncnc3c2nc(-c2ccc(OCCN4CCN(S(=O)(=O)O)CC4)cc2Cl)n3Cc2cc(Cl)ccn2)CC1` [Example T380, 4-(2-(3-chloro-4-(9-((4-chloropyridin-2-yl)methyl)-6-(1-methylcyclopropoxy)-9H-purin-8-yl)phenoxy)ethyl)piperazine-1-sulfonic acid] showed a pIC50 of 7.60.
Compound `CNC(=O)CCc1ccc(-c2nc3c(OC4(C)CC4)ncnc3n2Cc2cc(C)ccn2)c(Cl)c1` [Example T214, 3-(3-chloro-4-(6-(1-methylcyclopropoxy)-9-((4-methylpyridin-2-yl)methyl)-9H-purin-8-yl)phenyl)-N-methylpropanamide] has a pIC50 of 8.20.
For `CC(=O)COc1ccc(-c2nc3c(OC4(C)CC4)ncnc3n2Cc2cc(C)ccn2)c(Cl)c1` [Example T104, 1-(3-chloro-4-(6-(1-methylcyclopropoxy)-9-((4-methylpyridin-2-yl)methyl)-9H-purin-8-yl)phenoxy)propan-2-one], the pIC50 was 8.20.
For `Cc1cnc(Cn2c(-c3cccc(OCCCN4CC(O)C4)c3Cl)nc3c(OC4(C)CC4)ncnc32)s1` [Example T246, 1-(3-(2-chloro-3-(6-(1-methylcyclopropoxy)-9-((5-methylthiazol-2-yl)methyl)-9H-purin-8-yl)phenoxy)propyl)azetidin-3-ol], the pIC50 was 8.00.
Compound `Cc1cnc(Cn2c(-c3ccc(OCCN4CC(O)C4)cc3Cl)nc3c(OC4(C)CC4)ncnc32)s1` [Example T141, 1-(2-(3-chloro-4-(6-(1-methylcyclopropoxy)-9-((5-methylthiazol-2-yl)methyl)-9H-purin-8-yl)phenoxy)ethyl)azetidin-3-ol] has a pIC50 of 8.10.
In the case of `Cc1ccnc(Cn2c(-c3ccc(OCC(F)F)cc3Cl)nc3c(OC4(C)CC4)ncnc32)c1` [Example T47, 8-(2-chloro-4-(2,2-difluoroethoxy)phenyl)-6-(1-methylcyclopropoxy)-9-((4-methylpyridin-2-yl)methyl)-9H-purine], the pIC50 was 8.30.
Compound `Cc1cnnc(Cn2c(-c3ccc(CC(N)=O)cc3Cl)nc3c(OC4(C)CC4)ncnc32)c1` [Example T18, 2-(3-chloro-4-(6-(1-methylcyclopropoxy)-9-((5-methylpyridazin-3-yl)methyl)-9H-purin-8-yl)phenyl)acetamide] has a pIC50 of 6.70.
`Cc1ccnc(Cn2c(-c3ccc(OCC(=O)N4CCC[C@H]4C#N)cc3Cl)nc3c(OC4(C)CC4)ncnc32)c1` [Example T539, (S)-1-(2-(3-chloro-4-(6-(1-methylcyclopropoxy)-9-((4-methylpyridin-2-yl)methyl)-9H-purin-8-yl)phenoxy)acetyl)pyrrolidine-2-carbonitrile] gave a pIC50 of 8.00.
`Cc1nc(C)c(Cn2c(-c3ccc(CC(N)=O)cc3Cl)nc3c(OC4(C)CC4)ncnc32)s1` [Example T25, 2-(3-chloro-4-(9-((2,4-dimethylthiazol-5-yl)methyl)-6-(1-methylcyclopropoxy)-9H-purin-8-yl)phenyl)acetamide] gave a pIC50 of 7.10.
In the case of `CC(Cc1ccccn1)n1c(-c2ccc(OCCN3CCNCC3)cc2Cl)nc2c(OC3(C)CC3)ncnc21` (single isomer, unassigned) [Example S8, 8-(2-chloro-4-(2-(piperazin-1-yl)ethoxy)phenyl)-6-(1-methylcyclopropoxy)-9-(1-(pyridin-2-yl)propan-2-yl)-9H-purine], the pIC50 was 6.50.
With `Cc1ccnc(Cn2c(-c3ccc(OCC(F)CO)cc3Cl)nc3c(OC4(C)CC4)ncnc32)c1` (single isomer, unassigned) [Example T110, 3-(3-chloro-4-(6-(1-methylcyclopropoxy)-9-((4-methylpyridin-2-yl)methyl)-9H-purin-8-yl)phenoxy)-2-fluoropropan-1-ol] the pIC50 was 8.30.
`CNCc1ccc(-c2nc3c(OC4(C)CC4)ncnc3n2Cc2cc(C)ccn2)c(Cl)c1` [Example T68, 1-(3-chloro-4-(6-(1-methylcyclopropoxy)-9-((4-methylpyridin-2-yl)methyl)-9H-purin-8-yl)phenyl)-N-methylmethanamine] showed a pIC50 of 7.80.
Work on `CC(COc1cccc(-c2nc3c(OC4(C)CC4)ncnc3n2Cc2cc(Cl)ccc2F)c1Cl)CC(=O)O` (single isomer, unassigned) [Example U33, 4-(2-chloro-3-(9-(5-chloro-2-fluorobenzyl)-6-(1-methylcyclopropoxy)-9H-purin-8-yl)phenoxy)-3-methylbutanoic acid] yielded a pIC50 of 8.10.
In the case of `CC1(Oc2ncnc3c2nc(-c2ccc(CC(N)=O)cc2Cl)n3Cc2nnc(C3CC3)s2)CC1` [Example T20, 2-(3-chloro-4-(9-((5-cyclopropyl-1,3,4-thiadiazol-2-yl)methyl)-6-(1-methylcyclopropoxy)-9H-purin-8-yl)phenyl)acetamide], the pIC50 was 7.60.
`CC(COc1ccc(-c2nc3c(OC4(C)CC4)ncnc3n2Cc2ccccc2C#N)c(Cl)c1)CC(=O)O` (racemic) [Example U25, 4-(3-chloro-4-(9-(2-cyanobenzyl)-6-(1-methylcyclopropoxy)-9H-purin-8-yl)phenoxy)-3-methylbutanoic acid] showed a pIC50 of 8.00.
Work on `CC(CCOc1ccc(-c2nc3c(OC4(C)CC4)ncnc3n2Cc2cccc(C(F)F)c2)c(Cl)c1)C(=O)O` (single isomer, unassigned) [Example T412, 4-(3-chloro-4-(9-(3-(difluoromethyl)benzyl)-6-(1-methylcyclopropoxy)-9H-purin-8-yl)phenoxy)-2-methylbutanoic acid] yielded a pIC50 of 8.30.
For `Cc1ccnc(Cn2c(-c3ccc(N4CCS(=O)(=O)CC4)cc3Cl)nc3c(OC4(C)CC4)ncnc32)c1` [Example T225, 4-(3-chloro-4-(6-(1-methylcyclopropoxy)-9-((4-methylpyridin-2-yl)methyl)-9H-purin-8-yl)phenyl)thiomorpholine 1,1-dioxide], the pIC50 was 8.10.
`Cc1cnc(Cn2c(-c3cccc(OCCCN(C)C)c3Cl)nc3c(OC4(C)CC4)ncnc32)s1` [Example T149, 3-(2-chloro-3-(6-(1-methylcyclopropoxy)-9-((5-methylthiazol-2-yl)methyl)-9H-purin-8-yl)phenoxy)-N,N-dimethylpropan-1-amine] showed a pIC50 of 8.30.
In the case of `Cc1cccc(Cn2c(-c3ccc(OCCC(=O)O)cc3Cl)nc3c(OC4(C)CC4)ncnc32)c1` [Example T167, 3-(3-chloro-4-(9-(3-methylbenzyl)-6-(1-methylcyclopropoxy)-9H-purin-8-yl)phenoxy)propanoic acid], the pIC50 was 8.10.
`CC1(Oc2ncnc3c2nc(-c2cccc(OCCCC(C)(C)C(=O)O)c2Cl)n3Cc2cccc(Cl)c2)CC1` [Example T565, 5-(2-chloro-3-(9-(3-chlorobenzyl)-6-(1-methylcyclopropoxy)-9H-purin-8-yl)phenoxy)-2,2-dimethylpentanoic acid] gave a pIC50 of 8.10.

pIC50: −log10 of the molar value.
